Binding of CDR-mutated scFvs to a peptide of the spike HR2 region

Target peptide (SARS-CoV-2 spike, HR2 region): PDVDLGDISGINAS

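Designed CDR sequences, proposed from the first random library and measured here. Their group label is 14L_Ctrl (Ctrl: baseline library sampled from a position-specific scoring matrix, with some repeated check sequences). In AlphaSeq, yeast of one mating type display the scFv and yeast of the other type display the target. The frequency of each diploid, read from paired DNA barcodes, reflects how well the two displayed proteins bind. Scores were corrected for input abundance and mapped to Kd with protein pairs of known affinity run in the same pool. There are six technical replicates.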

Parent: Ab-14, a human scFv built as VH, a (GGGGS)3 linker, VL. Only the CDRs of the light chain vary.
VH: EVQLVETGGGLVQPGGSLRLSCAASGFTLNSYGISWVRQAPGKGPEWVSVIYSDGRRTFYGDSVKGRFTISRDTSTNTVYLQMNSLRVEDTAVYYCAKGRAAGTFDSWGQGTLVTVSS
VL: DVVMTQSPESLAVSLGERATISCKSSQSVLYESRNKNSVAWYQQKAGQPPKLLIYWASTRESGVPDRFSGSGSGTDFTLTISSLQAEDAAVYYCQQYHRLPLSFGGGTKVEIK

Variants are written as CDR1, CDR2 and CDR3 of the light chain (limits as in the source). Parent: KSSQSVLYESRNKNSVA, WASTRES, QQYHRLPLS. Values are log10 of the apparent Kd in nM; lower means stronger binding. "nd" marks a missing value. The strain was present, yet no cells mated with the target were sequenced in that replicate, which points to weak or no binding. The authors averaged sequences with at least three values out of six and counted those with two or fewer as poor binders. The range of this assay differs from that of the first round, and the authors advise against merging the two. Background: pairings of all light chain designs with three empty control strains gave a value in 4% of cases (median 2.64, 5th percentile 1.59). Values in that range, when seen in few replicates, are hard to tell from nonspecific mating. Also given: how often the same scFv was detected with the empty control strains, with their mean in brackets. Of ten entries with the parent sequence, four were seen in most replicates (averages 0.34 to 2.37), three in one and three in none, so single entries are noisy.

CDR-L1,CDR-L2,CDR-L3,"log10 Kd, replicates",signal with controls
MSSHSVLYESSNKNSVA,WVSTRES,QQYHRNPLS,2.87 / nd / nd / 2.21 / nd / nd,0 of 18
KSDPSVLYESRNKNSVA,KASTRES,QQYHSLPLS,0.64 / 0.45 / 0.47 / 0.61 / 0.86 / 0.95,2 of 18 (2.35)
KSSQFVLMESRNKNDVA,WASTRES,LQYHRLPLS,nd / nd / nd / nd / nd / nd,1 of 18 (1.70)
KSSQSVLKESRNKNSVA,SASTRES,QQYHRLPLS,1.42 / 2.09 / 1.88 / 1.55 / 3.15 / 2.06,0 of 18
KSSQSVRYEWRFKNSVA,WASTRES,QQYHRLPLS,nd / nd / nd / nd / 2.06 / nd,0 of 18
KFSQSVLYESRNKNSVA,MASHREH,QQYHRLPLS,0.89 / 0.46 / 1.12 / 1.15 / 0.46 / 0.83,0 of 18
KSSQSVLYMNRDKNSVA,GASTRPS,QQYHRLPLW,2.87 / 1.94 / 1.72 / 2.06 / 2.59 / 2.07,1 of 18 (2.51)
KSSQSVSYESTNKNSVA,WASERES,QAYHRLPLS,nd / 1.74 / 2.20 / 2.10 / 3.41 / 2.92,3 of 18 (2.60)
KWSISVLYYSRNKNSVA,WASTRES,QQYHRLPLS,nd / nd / nd / nd / nd / nd,0 of 18
KSSLSDLYESRNKNSVA,HASTREV,QQYHRLPLS,0.23 / -0.02 / -0.09 / -0.16 / 0.05 / 0.08,0 of 18
KSSQSVLYESRNKNSVA,AASTRES,QQYHCLPLS,nd / nd / nd / nd / 1.56 / nd,0 of 18
KSSQSWLHESRNENSVA,SASTRES,QQYHRMPLS,0.36 / 0.29 / 0.23 / 0.11 / 0.24 / 0.27,2 of 18 (2.79)
KSSQSVLYESINKNSVA,AASTRES,QQYHRLPLS,nd / 0.36 / 0.36 / 0.44 / 1.16 / 0.57,0 of 18
KSSQSVLYESRNKNSVA,HASTRES,QQYHRLPLF,1.08 / 0.45 / 1.11 / 1.75 / 1.15 / 1.30,0 of 18
KSSQSVLYESQDKNSVA,WASTRES,QQYHRLPLS,1.59 / 1.72 / 1.88 / 1.38 / 1.75 / 1.79,1 of 18 (2.35)
KSSQSVLYPSRNNNSVA,WASTREV,QQYHRLPLS,nd / 3.55 / 2.30 / 3.99 / 4.82 / 2.43,2 of 18 (2.90)
KSSQSVIYESRNKQSVA,WASTRES,QQYHRLELS,nd / nd / nd / nd / nd / nd,0 of 18
KSSQSVLYNSRNKGSVA,KASTRES,QQYHRLPLS,nd / nd / nd / nd / nd / nd,1 of 18 (2.80)
KSSQSVLREDRNKNSVA,WASARES,QQYHRLPLS,nd / 1.76 / 0.87 / 3.44 / 3.74 / 1.72,2 of 18 (2.72)
KSSQSVLYESRNKNSVA,WASWRES,QQYSRLPLS,nd / nd / nd / nd / 3.69 / nd,0 of 18
KSSQSVLYENRNTNSVA,WASTRES,QQYHRLPLS,2.42 / 1.62 / 1.47 / nd / 2.55 / 2.14,0 of 18
KSSQSGLYESRNKNSVA,SASTRES,QQYHRLPLS,0.03 / 0.44 / -0.02 / 0.35 / 0.14 / 0.34,1 of 18 (1.36)
KSSQSVLYDCRNKNSVA,WASTRDS,QQYHRIPLS,1.96 / nd / 2.19 / 3.70 / nd / 2.53,0 of 18
KSSQSVPYESRNKNSVA,WASTRES,QQLHRLPLS,nd / nd / nd / nd / nd / nd,0 of 18
KLSQSVQYESRNKNSVA,WASTRES,QQYHSLPLS,1.12 / 0.49 / 0.80 / 0.57 / 0.34 / 0.65,0 of 18
KSSQSVLYNSRLKNSVA,DASTRES,QQYHHLPLS,0.36 / 0.55 / 0.47 / 0.26 / 0.39 / 0.43,2 of 18 (3.32)
KSSQSVLYESLNKNSVA,WASTRHS,QQYHRMPLS,nd / nd / nd / nd / 2.56 / nd,0 of 18
KSSQGELYESRNKNSVA,WASERES,QQYHYLPLS,1.77 / nd / 1.68 / 1.75 / nd / 1.68,0 of 18
KSSQSVLYESQNKNSVA,WALTRES,QQYHRLPLS,nd / nd / nd / nd / 1.54 / nd,1 of 18 (3.11)
KSSHSDLYEGRNKNSVA,WASTREL,QQYHRLPLS,2.19 / 1.50 / 1.26 / 1.11 / 2.02 / 2.41,1 of 18 (4.10)
KSPQSNLYDSANKNSVA,WASTRES,QQYHRLPLS,1.14 / 0.55 / 1.10 / -0.05 / 1.08 / 2.12,1 of 18 (1.22)
KLSQSVEYESRNKNSVA,WASTRES,QQYQRLPLS,1.12 / 0.78 / 1.35 / 1.39 / 1.42 / 1.38,0 of 18
KSSQSVLYESRMWNSVA,DASTRES,QQYHRLPLS,0.41 / 0.18 / 0.05 / 0.03 / 0.11 / 0.38,3 of 18 (2.82)
KMSQSQLYESQNKNSVA,WASTREA,QQYHRLPLS,nd / 1.53 / 1.82 / 1.72 / 1.86 / 3.08,0 of 18
KSSQSVMYESRNKNSVA,WASTRAS,QQYHRLPLS,1.72 / 1.82 / 1.32 / 2.37 / 2.27 / 2.29,0 of 18
KNSQSVLYESRNKNSVA,SASTRES,QQYHRLPLS,0.40 / 0.51 / 0.29 / 0.20 / 0.59 / 0.48,1 of 18 (2.45)
KLSQNVLYDSRNKNSVA,SASTRES,QSYHHLPLS,0.09 / -0.02 / 0.13 / 0.00 / 0.17 / 0.25,3 of 18 (2.87)
KSSGSVLYESRNKNSVA,GASTRES,QQYHRLPLS,0.37 / 0.05 / 0.06 / 0.09 / 0.07 / 0.13,2 of 18 (2.49)
KSSQSVLYEDRNKNSVA,WASTRFS,QQYHRLPLG,2.52 / nd / nd / 1.47 / 2.04 / 1.34,0 of 18
KSSQSCLNESRNKDSVA,WASTRES,QQYHRLPLS,1.71 / 3.09 / 1.94 / 1.66 / 1.87 / 2.64,0 of 18
KSSQSLVGESRNKNSVA,TASTRES,QQYHRLPLS,1.09 / 0.76 / 1.28 / 1.06 / 1.10 / 0.93,1 of 18 (3.12)
SMSQSVLYESRNWNSVA,NASTRES,QQYHRLPLS,0.17 / -0.08 / -0.27 / -0.02 / -0.10 / 0.22,1 of 18 (3.27)

Top 6 of the variants detected in all replicates, tightest first:

CDR-L1	CDR-L2	CDR-L3	log10 Kd, replicates	signal with controls
SMSQSVLYESRNWNSVA	NASTRES	QQYHRLPLS	0.17 / -0.08 / -0.27 / -0.02 / -0.10 / 0.22	1 of 18 (3.27)
KSSLSDLYESRNKNSVA	HASTREV	QQYHRLPLS	0.23 / -0.02 / -0.09 / -0.16 / 0.05 / 0.08	0 of 18
KLSQNVLYDSRNKNSVA	SASTRES	QSYHHLPLS	0.09 / -0.02 / 0.13 / 0.00 / 0.17 / 0.25	3 of 18 (2.87)
KSSGSVLYESRNKNSVA	GASTRES	QQYHRLPLS	0.37 / 0.05 / 0.06 / 0.09 / 0.07 / 0.13	2 of 18 (2.49)
KSSQSVLYESRMWNSVA	DASTRES	QQYHRLPLS	0.41 / 0.18 / 0.05 / 0.03 / 0.11 / 0.38	3 of 18 (2.82)
KSSQSGLYESRNKNSVA	SASTRES	QQYHRLPLS	0.03 / 0.44 / -0.02 / 0.35 / 0.14 / 0.34	1 of 18 (1.36)

From the AlphaSeq antibody data of Li et al. 2023 (doi:10.1038/s41467-023-39022-2), copy in the FLAb collection.